# Experimental data published in patent US11291637B2, “Methods for treating or preventing organophosphate poisoning” (dated 2022).
# Experiments:
# soman-induced seizures [1] = conditions: isoflurane anesthesia maintained for 1.5 hours; cited from earlier work
# sarin poisoning = conditions: 2% isoflurane in 100% oxygen continuously for 6 hours; cited from earlier work
# paraoxon intoxication [2] = test: Survival after lethal dose of paraoxon
# [3] = tested on: paraoxon-induced seizures; test: Seizure severity (modified Racine scale) after paraoxon intoxication
# [4] = tested on: paraoxon-induced neuronal degeneration; test: Fluoro-Jade (FJC/FJB) staining for acute neurodegeneration 24 hours after paraoxon
# paraoxon intoxication [5] = test: Behavioral observation (sedation, appearance) after brief isoflurane in paraoxon-intoxicated rats
# OP-CTA poisoning = conditions: if treatment is delayed; cited from earlier work
# soman-induced seizures [6] = conditions: sub-anesthetic doses, 30 minutes after soman challenge; cited from earlier work
# [7] = 1% for 4 minutes, 30 minutes after paraoxon
# [8] = 4 minute isoflurane (2% for 3 minute and 3.5% or higher for 1 minute) 20 or 30 minutes after paraoxon
# [9] = brief isoflurane initiated at 120 minutes after paraoxon
# [10] = 4%, 4.5% or 5% isoflurane for 5 minutes, 1 hour after paraoxon
# [11] = brief isoflurane 30 minutes after paraoxon
structure (smiles),measurement,setting,value
FC(F)OC(Cl)C(F)(F)F (stereo not shown),edema in selected brain areas,soman-induced seizures [1],attenuated edema
same,soman-induced seizures,soman-induced seizures [1],interrupted soman-induced seizures
same,protection against sarin poisoning,sarin poisoning,profound protection
same,survival rate,"paraoxon intoxication [2]; brief isoflurane (2% 3 min, 5% 1 min) in 100% oxygen 10 to 120 minutes after paraoxon, n=6/group",100%
same,survival,paraoxon intoxication [2]; brief isoflurane between 10 and 120 minutes after paraoxon,improved survival at all time points
same,prevention of seizures,[3]; [7],failed to prevent seizures
same,post-exposure time of peak effectiveness on seizure severity,"[3]; 2% 3 min then 5% 1 min, time after exposure to paraoxon",about 30 minutes
same,seizure severity,"[3]; 2% isoflurane 3 min then 5% 1 min in 100% oxygen, about 10 minutes to about 2 hours after paraoxon 4 mg/kg",decreased seizure severity significantly
same,seizure activity after brief isoflurane,"[3]; 4%, 4.5% or 5% isoflurane in 100% oxygen for 5 minutes, 1 hour after paraoxon",did not exhibit any signs of seizure activity
same,seizure activity,[3]; [8],prevented further seizure activity
same,seizures induced by paraoxon,"[3]; 30 minutes after paraoxon, 2% 3 min then 3.5% or 5% for the final minute",stopped seizures
same,effectiveness in dose-response studies,[3]; about 2% isoflurane for 3 minutes followed by 1 minute in the ~3.5% to 5% range,effective
same,minimum effective concentration of isoflurane,[3]; brief administration 30 minutes after paraoxon,3.5%
same,seizure activity,[3]; brief isoflurane at 45 minutes or later post-paraoxon,continued moderate to severe seizure activity
same,time until significant reduction in seizure severity below stage 2,[3]; brief isoflurane initiated 45 or 60 minutes after paraoxon,7 h
same,time to complete suppression of seizures,[3]; brief isoflurane initiated at 20 or 30 minutes after paraoxon,≤ 10 min
same,seizure severity 1 hour after treatment (3 hour time point),[3]; [9],statistically significant reduction in seizure severity
same,seizure severity (Racine stage) at all time points observed,[3]; [9],≥ 3 stage
same,prevention of neurodegeneration,[4]; [7],failed to prevent
same,neurodegeneration (FJB staining) at 24 hours,[4]; 4% isoflurane for 5 minutes one hour after paraoxon,significantly reduced neurodegeneration
same,degenerating neurons 24 hours after paraoxon,[4]; [10],significantly reduced
same,neurodegeneration (FJB staining) at 24 hours,[4]; 4.5% isoflurane for 5 minutes one hour after paraoxon,minimal neurodegeneration
same,neurodegeneration 24 hours later,[4]; [8],no neurodegeneration
same,neurodegeneration 24 hours after intoxication,"[4]; 30 minutes after paraoxon, 1% (4 minutes) or 2% (4 minutes)",extensive neurodegeneration
same,FJC stained neurons,"[4]; 30 minutes after paraoxon, 1% isoflurane for 4 minutes",Numerous FJC stained neurons
same,neurodegeneration 24 hours after intoxication,"[4]; 30 minutes after paraoxon, 3.5% or 5% isoflurane for the last minute",no neurodegeneration
same,rats with neurodegeneration,"[4]; brief isoflurane 45 or 60 minutes after paraoxon, each group",5 out of 6
same,rats with acute neurodegeneration (positive FJC staining),"[4]; brief isoflurane 10 minutes after paraoxon, 24 hours",2 out of 6
same,"FJC staining, medial cortical amygdala",[4]; [11],Staining was not seen
same,"neuronal loss (FJC), hippocampus and dorsolateral thalamus",[4]; [11],neuronal loss was prevented
same,neuronal loss / neurodegeneration (FJC),"[4]; brief isoflurane 30 minutes after paraoxon, 24 hours",no neuronal loss
same,neuronal loss / neurodegeneration (FJC),"[4]; brief isoflurane 30 minutes after paraoxon, 24 hours, listed as Isoflurane",prevented the neurodegeneration
same,acute neurodegeneration (FJC staining),"[4]; brief isoflurane at 20 and 30 minutes after paraoxon, 24 hours, n=6 per group",no acute neurodegeneration
same,animals showing neurodegeneration 24 hours after paraoxon,"[4]; brief isoflurane at 120 minutes after paraoxon, n=6",all animals
same,neuroprotection,"[4]; brief isoflurane at the 10, 45 and 60 minute post-exposure time points",Only partial neuroprotection
same,number of degenerating neurons (Fluoro-Jade-C) at 24 h,"[4]; isoflurane treated groups, time course about 10 minutes to about 2 hours",decreased significantly
same,appearance after 24 hours,paraoxon intoxication [5]; [10],appeared normal
same,behavior 24 hours later,paraoxon intoxication [5]; [8],normal behavior
CN1C(=O)CN=C(c2ccccc2)c2cc(Cl)ccc21,effectiveness of anticonvulsant treatment,OP-CTA poisoning,loses effectiveness
CNC1(c2ccccc2Cl)CCCCC1=O (stereo not shown),ongoing seizures,soman-induced seizures [6],stop ongoing seizures
